# scFv variants of Ab-14 (heavy chain) against a SARS-CoV-2 spike peptide

Reference: Li et al. 2023, doi:10.1038/s41467-023-39022-2. File: FLAb, binding data.

Target: peptide PDVDLGDISGINAS, taken from heptad repeat 2 (HR2) of SARS-CoV-2 spike.

The variants keep the light chain, the linker and the frameworks of Ab-14 (scFv order VH, a 15-residue (Gly4Ser)3 linker, VL).
VH: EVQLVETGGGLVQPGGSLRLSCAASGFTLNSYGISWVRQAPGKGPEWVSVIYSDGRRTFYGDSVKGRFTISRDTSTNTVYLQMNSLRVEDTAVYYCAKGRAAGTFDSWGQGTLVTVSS
VL: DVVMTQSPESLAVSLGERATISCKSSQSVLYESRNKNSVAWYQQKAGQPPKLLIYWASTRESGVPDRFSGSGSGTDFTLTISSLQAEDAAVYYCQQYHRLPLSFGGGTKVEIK

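The parent was found by panning a naive human phage display library on the peptide. This is the validation round: designs drawn from the data on random variants, tested in the same kind of assay. Group labels follow the data file (Ctrl: baseline library sampled from a position-specific scoring matrix, with some repeated check sequences; Rand: our label for a block that the file lists under HC and that is probably the random mutants of the ten best first-round binders; GP: Gaussian process model; GPLM: also part of the Gaussian process libraries; HC: hill climbing; Gen: genetic algorithm; Gibbs: Gibbs sampling; a sequence that several methods proposed may carry one label only). AlphaSeq pools MATa yeast showing the antibodies with MATalpha yeast showing the peptide. After mating in shaken culture at 30 °C for 16 h, diploids were selected and their barcode pairs sequenced. The ratio of observed to expected reads was calibrated, replicate by replicate, on BCL2-family standards whose Kd was known from biolayer interferometry. There are six technical replicates.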

Positions count from residue 1 of the parent VH; T28S puts S in place of T.
This list holds designs with at most six substitutions.
The Kd shown is the geometric mean over detected replicates; a lower Kd is a better binder.
"nd" marks a missing value. The strain was present, yet no cells mated with the target were sequenced in any replicate, which points to weak or no binding.
Order: sorted from the lowest average up, undetected variants last.
Nonspecific signal, from three strains lacking the peptide, appeared in 1% of pairings of all heavy chain designs, centred on 120 nM (5% of these signals below 7.0 nM); values are not corrected for it.
Values of this round are not directly comparable with the first-round values of the same sequences.
The parent sequence was in this pool as ten entries: three were never detected, three once, and four in most replicates, with averages from 2.2 nM to 240 nM.
The authors' rule: three or more of the six replicates give a measured affinity, fewer mean a poor binder.

- T28S+S31T+G61S+R100E [GPLM_Gen] -> 190 pM (2 of 6 replicates)
- T28S+S31E+A101T+S107Q [GPLM_Gibbs] -> 420 pM (6 of 6 replicates)
- T28D+G61D+S63Q+A101T [GP_Gen] -> 510 pM (6 of 6 replicates)
- T28E+S53A+R100K+S107R [GPLM_Gibbs] -> 800 pM (6 of 6 replicates)
- T28E+S53A+R100N+S107D [GP_Gibbs] -> 1.3 nM (6 of 6 replicates)
- T28N+S53A+R100N [GPLM_Gen] -> 1.7 nM (6 of 6 replicates)
- S31D+G61A+A101M [GPLM_Gen] -> 1.8 nM (6 of 6 replicates)
- T28S+S63Q+R100K+A101N [GPLM_Gibbs] -> 1.9 nM (5 of 6 replicates)
- T28S+G61A+R100V [GPLM_Gen] -> 2.1 nM (6 of 6 replicates)
- S31Q+G61S+R100Q+S107K [GP_HC] -> 2.2 nM (6 of 6 replicates)
- T28D+T104A+D106W [GPLM_HC] -> 2.8 nM (6 of 6 replicates)
- G61T+R100E+A101L [Ctrl] -> 3.2 nM (6 of 6 replicates)
- T28S+N30D [Ctrl] -> 3.4 nM (6 of 6 replicates)
- T28E+S31E+R100E+S107T [GP_Gen] -> 4.5 nM (6 of 6 replicates)
- S31E+F59Q+G61I [GPLM_HC] -> 4.6 nM (5 of 6 replicates)
- G26K+T28D+G61D+A101T [GP_Gen] -> 12 nM (5 of 6 replicates)
- T28S+R100K+S107A [GPLM_HC] -> 13 nM (6 of 6 replicates)
- T28S+S31E+G61C+R100K+S107R [GP_HC] -> 15 nM (6 of 6 replicates)
- T28V+R100K+S107T [Ctrl] -> 17 nM (1 of 6 replicates)
- T28S+R100K+S107Q [GPLM_Gibbs] -> 29 nM (4 of 6 replicates)
- T28A+S53A+T104P [Ctrl] -> 89 nM (6 of 6 replicates)
- N30E+G61A+A101R [Ctrl] -> 93 nM (4 of 6 replicates)
- G61T+K65V [Ctrl] -> 750 nM (1 of 6 replicates)
- T28N+R56L+R100T+F105E [Ctrl] -> nd (0 of 6 replicates)
- G26L+S31E+G61S+A101T [GP_HC] -> nd (0 of 6 replicates)
- T28Q+G61Q+S63Q+R100Q [GP_Gibbs] -> nd (0 of 6 replicates)
- G61T+A102H+F105C [Rand] -> nd (0 of 6 replicates)
- S31E+S63R+G103V+S107K [GPLM_HC] -> nd (0 of 6 replicates)
- A101N+G103H [Ctrl] -> nd (0 of 6 replicates)
- G61A+D106P [Ctrl] -> nd (0 of 6 replicates)
- N30D+S53F+F105A+D106L+S107M [Rand] -> nd (0 of 6 replicates)
- T58Q+R100F [Ctrl] -> nd (0 of 6 replicates)

From the list, the first 2 with no signal in any replicate:

| changes | group | Kd (apparent) | replicates with signal |
|---|---|---|---|
| T28N+R56L+R100T+F105E | Ctrl | nd | 0/6 |
| G26L+S31E+G61S+A101T | GP_HC | nd | 0/6 |